# Antibody variant affinities, Ab-14 heavy chain, assay 1

Target peptide (SARS-CoV-2 spike, HR2 region): PDVDLGDISGINAS

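The library (AAYL49) carries one to three amino acid substitutions per variant, with no insertions or deletions. AlphaSeq pools MATa yeast showing the antibodies with MATalpha yeast showing the peptide. The frequency of each diploid, read from paired DNA barcodes, reflects how well the two displayed proteins bind. The ratio of observed to expected reads was calibrated, replicate by replicate, on BCL2-family standards whose Kd was known from biolayer interferometry. The assay was run in three technical replicates.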

Each scFv is VH, a (GGGGS)3 linker, VL, as in the parent Ab-14, and differs from it in the CDRs of the heavy chain only.
VH: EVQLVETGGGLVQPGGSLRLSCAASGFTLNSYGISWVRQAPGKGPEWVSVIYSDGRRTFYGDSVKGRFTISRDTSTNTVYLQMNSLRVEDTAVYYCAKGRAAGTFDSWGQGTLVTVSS
VL: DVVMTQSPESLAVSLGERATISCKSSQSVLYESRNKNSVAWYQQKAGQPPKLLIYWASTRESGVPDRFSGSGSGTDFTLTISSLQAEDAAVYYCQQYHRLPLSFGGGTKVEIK

Substitutions are numbered in sequence along the VH above, starting at 1 (not Kabat).
Kd is apparent (estimated from mating counts) and averaged on the log scale over replicates with a signal. Smaller is tighter.
"not detected" means that the variant was in the library but no mating with the target was seen in any replicate; the authors take this as a sign of poor binding, and no number exists.

changes,Kd (apparent),detected
R56L V64A T104A,3.2 µM,3/3
S31E I51F D54P,not detected,0/3
I51K T58S G103P,250 µM,1/3
F27Y I51W G99L,not detected,0/3
G55M A101H,not detected,0/3
N30A Y60W F105C,28 µM,1/3
R57L A101N F105Y,not detected,0/3
D54A G55D R56Y,not detected,0/3
V50E S53G D54I,not detected,0/3
F27M G55K R100Q,not detected,0/3
G26H G103F T104A,300 nM,3/3
Y32S V50G A102K,6.6 µM,2/3
D54L S63T V64M,not detected,0/3
G26L S31R S63K,6.3 nM,3/3
N30E S53D,9.9 µM,2/3
S53V D62S,not detected,0/3
Y60C A102C,1.2 µM,1/3
R56H T58F A101C,120 nM,3/3
G26C Y60I D106P,not detected,0/3
T28I S35Y R57N,17 µM,1/3
V50F R100V F105M,15 µM,2/3
R56E S63K V64H,not detected,0/3
S31H Y52N K65Y,160 µM,1/3
G33A V64R T104H,not detected,0/3
G61F D62W D106N,not detected,0/3
F27C S53P D54F,not detected,0/3
Y52D G55A,not detected,0/3
G26L I34F G55M,not detected,0/3
N30T V64D D106R,not detected,0/3
T28I G33F D106S,not detected,0/3
G55K Y60T F105M,not detected,0/3
S31A G61L,13 µM,3/3
G55R R56M G61T,not detected,0/3
G26S N30V G33T,25 µM,1/3
R57D G61Y,not detected,0/3
G26F D54G T104R,not detected,0/3
L29K I51T F59L,160 µM,1/3
I34Y F105Q S107Q,not detected,0/3
N30E S31A R100M,26 nM,3/3
D54R F59A S107H,not detected,0/3
F27M L29T R57K,not detected,0/3
R57L Y60C A102M,28 µM,2/3
L29I I34H D54W,not detected,0/3
G26W S31W G55N,not detected,0/3
G55F R57G T58M,not detected,0/3
Y52E V64A A102D,36 µM,1/3
N30H G55C R100Y,30 µM,1/3
I34P V64T R100P,not detected,0/3
R100G A101I,6.0 nM,3/3
L29H V50P D106G,not detected,0/3
F27D R100C,6.5 nM,3/3
S31E I51Y D62R,not detected,0/3
K65G T104S,1.0 µM,1/3
G61F D62L K65F,43 µM,1/3
L29Y R56G A101C,200 µM,2/3
S35P R56L S107D,not detected,0/3
S53T F59T D106G,not detected,0/3
F27D V64Q R100C,not detected,0/3
V50N V64N G99A,not detected,0/3
I51N G55S,not detected,0/3
S35Q K65D G99F,not detected,0/3
F27L Y60L V64N,5.4 µM,1/3
F27M T28N R100W,30 nM,3/3
D54K R57C G61Y,not detected,0/3
Y52I Y60G S63V,not detected,0/3
T28L N30G F59Q,not detected,0/3
G33D R56K T58F,990 nM,1/3
R56V T58V F59V,21 nM,3/3
T58V F59M G61L,19 nM,3/3
Y32D G55F G61N,45 µM,2/3
G26I G103F S107M,200 nM,3/3
G26K S35T G61S,not detected,0/3
F27T S31I T104I,not detected,0/3
V50Q R57M T104N,170 µM,1/3
V50A G61E S107C,not detected,0/3
S53Y T58D D106A,9.7 µM,2/3

The closing 4 entries, repeated:

changes	Kd (apparent)	detected
F27T S31I T104I	not detected	0/3
V50Q R57M T104N	170 µM	1/3
V50A G61E S107C	not detected	0/3
S53Y T58D D106A	9.7 µM	2/3

For reference, the parent read 4.4 nM as the reference entry and 13 µM (one replicate of three) as a member of this library.
Background: pairings of library AAYL49 with three empty control strains gave a value in 15% of cases (median 11 µM, 5th percentile 680 nM). Values in that range, when seen in few replicates, are hard to tell from nonspecific mating.

Source: Engelhart et al. 2022 (doi:10.1038/s41597-022-01779-4), MIT Lincoln Laboratory and A-Alpha Bio; data file from the FLAb repository.